{"sequences": {"note": "Protein sequences, listed by entry. Tags and fused reporters are not part of them.", "UniProt P08908, whole entry": "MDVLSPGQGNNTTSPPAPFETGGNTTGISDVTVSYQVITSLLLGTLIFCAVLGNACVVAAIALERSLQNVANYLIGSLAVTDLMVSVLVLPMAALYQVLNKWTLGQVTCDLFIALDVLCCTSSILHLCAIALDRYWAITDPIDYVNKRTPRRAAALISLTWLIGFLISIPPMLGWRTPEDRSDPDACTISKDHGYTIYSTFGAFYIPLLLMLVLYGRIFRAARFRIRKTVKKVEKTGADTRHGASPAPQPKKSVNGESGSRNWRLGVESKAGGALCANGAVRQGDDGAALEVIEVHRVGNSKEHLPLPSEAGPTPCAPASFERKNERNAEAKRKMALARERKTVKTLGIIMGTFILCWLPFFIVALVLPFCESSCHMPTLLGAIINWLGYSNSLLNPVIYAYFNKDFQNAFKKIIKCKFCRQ"}, "source": "patent EP1068184B1", "about": "“N-ARYLOXYETHYLAMINE DERIVATIVES FOR THE TREATMENT OF DEPRESSION” (Wyeth, priority 1998, dated 1999)", "target": "T1, human 5-HT1A receptor subtype (Homo sapiens, UniProt P08908)", "T1 construct": "expressed in transfected cells", "assay": "cAMP formation in forskolin-treated cells (cAMP SPA assay)", "format": "cell-based", "conditions": "forskolin 1 uM, 10 min at 37°C", "procedure": "The PCR cloning of the human 5-HT1A receptor subtype from a human genomic library has been described previously Chanda et al., Mol. Pharmacol., 43:516 (1993). A stable Chinese hamster ovary cell line expressing the human 5-HT1A receptor subtype (5-HT1A.CHO cells) was employed throughout this study. Cells were maintained in DMEM supplemented with 10% foetal calf serum, non-essential amino acids and penicillin/ streptomycin.\nThe following assays were performed by incubating the cells with DMEM containing 25 mM HEPES, 5 mM theophylline and 10 µM pargyline for a period of 20 minutes at 37°C. Functional activity was assessed by treating the cells with forskolin (1 uM final concentration) followed immediately by test compound (6 concentrations) for an additional 10 min at 37°C. In separate experiments, 6 concentrations of antagonist were preincubated for 20 min prior to the addition of 10 nM 8-OH-DPAT and forskolin. The reaction was terminated by removal of the media and addition of 0.5 ml ice cold assay buffer. Plates were stored at -20°C prior to assessment of cAMP formation by a cAMP SPA assay (Amersham).", "data": [{"smiles": "COc1ccccc1OCCN[C@H]1CC[C@H](c2c[nH]c3ccc(F)cc32)CC1", "note": "[Example 1b, [(trans)-4-(5-Fluoro-1H-indol-3-yl)-cyclohexyl]-[2-(2-methoxy-phenoxy)-ethyl]-amine]", "values": [{"measurement": "Emax", "result": 92, "unit": "%"}]}]}
